Measurements from patent US20230414730.

Amino acid sequences for entries named in this document (tags omitted).
Natural full-length AAT from human serum, P01009, UniProt P01009, whole entry, looked up: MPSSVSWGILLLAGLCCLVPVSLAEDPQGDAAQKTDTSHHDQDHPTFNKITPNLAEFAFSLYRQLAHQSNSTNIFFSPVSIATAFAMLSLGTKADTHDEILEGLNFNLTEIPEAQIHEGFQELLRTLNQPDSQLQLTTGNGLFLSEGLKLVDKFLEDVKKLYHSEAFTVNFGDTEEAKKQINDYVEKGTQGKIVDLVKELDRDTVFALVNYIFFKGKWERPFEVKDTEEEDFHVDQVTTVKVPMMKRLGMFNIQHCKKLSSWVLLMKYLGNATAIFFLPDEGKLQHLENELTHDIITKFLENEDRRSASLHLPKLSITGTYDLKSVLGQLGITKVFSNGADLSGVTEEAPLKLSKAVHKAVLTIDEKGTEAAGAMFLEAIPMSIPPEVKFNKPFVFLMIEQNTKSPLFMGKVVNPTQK

Tests used:
[1] = biological target: Natural full-length AAT from human serum, P01009
[2] = biological target: AAT derived from transduced MSCs (human Alpha-1 antitrypsin expressed from genetically modified primary human MSCs, in cell culture supernatant), P01009

B1: neutrophil elastase (protein)
chain: IVGGRRARPHAWPFMVSLQLRGGHFCGATLIAPNFVMSAAHCVANVNVRAVRVVLGAHNLSRREPTRQVFAVQRIFENGYDPVNLLNDIVILQLNGSATINANVQVAQLPAQGRRLGNGVQCLAMGWGLLGRNRGIASVLQELNVTVVTSLCRRSNVCTLVRGRQAGVCFGDSGSPLVCNGLIHGIASFVRGGCASGLYPDAFAPVAQFVNWIDSIIQ
- RFU output from hydrolyzation of a fluorescent elastase substrate (neutrophil elastase activity) [1]: AAT derived from transduced MSCs and from human plasma is equally potent in inhibiting neutrophil elastase
- RFU output from hydrolyzation of a fluorescent elastase substrate (neutrophil elastase activity) [2]: AAT derived from transduced MSCs and from human plasma is equally potent in inhibiting neutrophil elastase
